Antibody variant affinities, Ab-95 light chain, assay 2

Reference: Engelhart et al. 2022, doi:10.1038/s41597-022-01779-4. File: FLAb, binding data.

Antigen: PDVDLGDISGINAS, a 14-residue peptide of the SARS-CoV-2 spike HR2 region.

Each scFv is VH, three GGGGS repeats, VL, as in the parent Ab-95, and differs from it in the CDRs of the light chain only.
VH: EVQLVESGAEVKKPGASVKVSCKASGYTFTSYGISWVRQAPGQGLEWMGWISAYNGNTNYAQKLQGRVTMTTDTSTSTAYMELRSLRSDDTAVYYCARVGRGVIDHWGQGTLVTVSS
VL: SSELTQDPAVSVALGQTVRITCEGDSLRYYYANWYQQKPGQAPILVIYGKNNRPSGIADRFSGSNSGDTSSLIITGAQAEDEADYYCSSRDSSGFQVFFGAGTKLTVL

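The parent was found by panning a naive human phage display library on the peptide. Variants in AAYL52 differ from the parent at up to three CDR positions; double and triple changes were sampled at random. Affinity was read by AlphaSeq, a pooled yeast mating assay with surface-displayed partners. Mating (16 h, 30 °C) was followed by selection of diploids and sequencing of their barcodes. Each replicate has its own calibration line, from reference interactions of the BCL2 family. The assay was run in three technical replicates.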

Changes read parent residue, position, new residue, counted from the first residue of the VL shown.
Every variant below is changed at S88 of the VL (sequential numbering).
Values are apparent Kd, the geometric mean of the replicates that gave a signal; lower means stronger binding.
A pair that was not seen in any replicate is written "nd"; this usually means weak binding, but a binder can also be missed.
The list is sorted by this average, lowest first, undetected variants last.
Three control strains display no target. For library AAYL52, 28% of the pairings with them gave a signal, with a median of 8.2 µM and one signal in twenty below 800 nM, so weak values seen in few replicates may be background. Also given: how often the same scFv was detected with the empty control strains.
For reference, the parent read 200 nM as the reference entry and 180 nM as a member of this library.

With Y29G/S88P the result was 30 nM (3 of 3 replicates; controls 1 of 9).
With Y29S/S88M/F95S the result was 78 nM (3 of 3 replicates; controls 2 of 9).
With N52T/S88E the result was 110 nM (3 of 3 replicates; controls 6 of 9).
With S88P/V97L the result was 170 nM (3 of 3 replicates; controls 3 of 9).
With P54N/S88I/S92D the result was 200 nM (3 of 3 replicates; controls 0 of 9).
With S88F/G94W the result was 230 nM (3 of 3 replicates; controls 3 of 9).
With R28L/S88H/D91I the result was 300 nM (3 of 3 replicates; controls 2 of 9).
With R28I/Y31L/S88V the result was 320 nM (3 of 3 replicates; controls 4 of 9).
With S88D/S92R the result was 690 nM (3 of 3 replicates; controls 2 of 9).
With Y29E/P54L/S88A the result was 880 nM (3 of 3 replicates; controls 1 of 9).
With R28C/S88A/S92T the result was 1.0 µM (3 of 3 replicates; controls 2 of 9).
With S88Y/S93G/F95C the result was 1.2 µM (2 of 3 replicates; controls 2 of 9).
With R28A/Y29F/S88P the result was 1.4 µM (3 of 3 replicates; controls 5 of 9).
With Y29R/S88M/G94Q the result was 1.4 µM (2 of 3 replicates; controls 3 of 9).
With A32G/S88G/S89V the result was 1.6 µM (3 of 3 replicates; controls 3 of 9).
With Y29L/S88L the result was 2.0 µM (2 of 3 replicates; controls 3 of 9).
With G49H/S88C/S93C the result was 2.2 µM (1 of 3 replicates; controls 2 of 9).
With S88K/S89Q/S93G the result was 2.4 µM (3 of 3 replicates; controls 2 of 9).
With N52R/S88V/V97I the result was 2.5 µM (1 of 3 replicates; controls 2 of 9).
With Y31A/S88D the result was 2.7 µM (1 of 3 replicates; controls 0 of 9).
With D25M/N52Q/S88Y the result was 3.0 µM (1 of 3 replicates; controls 0 of 9).
With R53D/S88A the result was 3.0 µM (1 of 3 replicates; controls 2 of 9).
With N33W/S88M/Q96N the result was 3.1 µM (1 of 3 replicates; controls 1 of 9).
With N33I/S88G/D91V the result was 3.3 µM (1 of 3 replicates; controls 2 of 9).
With G49I/S88V/F95A the result was 5.2 µM (2 of 3 replicates; controls 3 of 9).
With N33Q/S88K/R90Y the result was 5.2 µM (2 of 3 replicates; controls 1 of 9).
With D25R/G49L/S88G the result was 9.3 µM (2 of 3 replicates; controls 2 of 9).
With P54I/S88K/G94N the result was 13 µM (2 of 3 replicates; controls 4 of 9).
With Y29V/S55V/S88I the result was 27 µM (2 of 3 replicates; controls 0 of 9).
With L27P/S88F/G94C the result was 49 µM (1 of 3 replicates; controls 3 of 9).
With G49H/S88N/F95S the result was 51 µM (1 of 3 replicates; controls 5 of 9).
With G24F/N33M/S88E the result was nd (0 of 3 replicates; controls 1 of 9).
With S55M/S88A/G94P the result was nd (0 of 3 replicates; controls 2 of 9).
With Y29R/S88H/S92R the result was nd (0 of 3 replicates; controls 2 of 9).